What all share (test): Electrorotation speed of cells before and after EGFR TKI treatment
Holding throughout (assay type): cell-based

One assay concerns AS2 cells. Conditions: AS2, drug resistant, without EGFR mutation; before (0 hr) vs after (6 hrs).
In another assay the test system is HCC827 cells. Conditions: 6 hours treatment.
The subject of a further assay is H1975 cells. Particulars: H1975, drug resistant (acquired); before (0 hr) vs after (6 hrs).

Data on 1 compound can be found in US20170087562A1, “METHOD FOR DETERMINING TREATMENT RESPONSE OF CELLS” (NATIONAL CHENG KUNG UNIVERSITY, priority 2015, published 2017).

In the case of `COc1cc2ncnc(Nc3ccc(F)c(Cl)c3)c2cc1OCCCN1CCOCC1` [EGFR TKI], the “difference of electrorotation speeds before and after treatment” value in the assay with AS2 cells and in the assay on H1975 cells was “no significant difference” each time. Further, in the assay on HCC827 cells (HCC827, sensitive, with EGFR mutation), the “electrorotation speeds after treatment versus before treatment” value is given as “slower”. Moreover, the “cell death at the time point of electrorotation” value with HCC827 cells (HCC827) is “do not present significant cell death”.
